# Experimental data from published antibiotic growth screens (doi:10.1038/s41589-023-01349-8).
# The other results are listed elsewhere or left out.
# Test system: A. baumannii ATCC 17978
# Experiment: relative growth (fraction of control); higher = less inhibition
# Details: 50 µM
row,Structure (SMILES),relative growth
1,CC(C)Cn1cnc2c(N)nc3ccccc3c21.Cl,0.892
2,CN(C)/C=C/C(=S)c1cccs1,0.98
3,CO[C@H]1CN(C)C(=O)c2cc(NC(=O)C3CC3)ccc2OC[C@H](C)N(C(=O)Cc2ccccn2)C[C@@H]1C,0.998
4,C/C=C/c1ccc2c(c1)O[C@@H](CN(C)S(=O)(=O)c1ccccc1)[C@@H](C)CN([C@@H](C)CO)S2(=O)=O,0.847
5,COc1ccc(S(=O)(=O)N[C@H]2C=C[C@H](CC(=O)N3CCC(Cc4ccccc4)CC3)O[C@@H]2CO)cc1,0.718
6,O=C(CCCN1CCC(O)(c2ccc(Br)cc2)CC1)c1ccc(F)cc1,0.818
7,Nn1c(CO)nc2ccccc21,0.889
8,CN1CCC[C@@H](CC2c3ccccc3Sc3ccccc32)C1,0.612
9,CC1(COc2ccc3c(c2)ncn3-c2ccc3cccc(N4CCC(N)CC4)c3n2)COC1,0.295
10,C=CCC[C@@H](Cc1ccc(F)cc1)C(=O)OC[C@H](Cc1c[nH]c2ccccc12)NC(=O)[C@H](CC=C)CC(=O)N(CCO)Cc1ccccc1,1.62
11,CNC(=O)C[C@@H]1CC[C@@H]2[C@H](COC[C@H](O)CN2C(=O)Nc2cccc(OC)c2)O1,1.03
12,CC1(C)CCC[C@]2(C)[C@H]3CC(=O)O[C@]3(C)CC[C@@H]12,1.13
13,CCS(=O)(=O)N[C@@H]1C=C[C@H](CC(=O)NCc2ccc(Cl)cc2)O[C@H]1CO,1.11
14,C[C@@H]1COCCS(=O)(=O)N1C,1
15,C[C@@H]1CN([C@H](C)CO)C(=O)c2cc(NS(=O)(=O)c3cccs3)ccc2O[C@@H](C)CCCCO[C@@H]1CN(C)Cc1ccc2c(c1)OCO2,1.05
16,Nc1ccc(Oc2ccccc2)cc1,0.844
17,C=c1cc(C)ccc1=C1NN=C(N)O1,1.01
18,COc1ccc(S(=O)(=O)N[C@@H]2CC[C@@H](CC(=O)N3CCN(c4ccccc4)CC3)O[C@@H]2CO)cc1,0.993
19,COc1cccc(S(=O)(=O)N(C)C[C@H]2OCc3cnnn3CCCC(=O)N([C@H](C)CO)C[C@@H]2C)c1,1.16
20,CCCCC(CC)CN1CN(CC(CC)CCCC)CC(C)(N)C1 (centres undefined),0.154
21,C[C@@H]1CN([C@@H](C)CO)S(=O)(=O)c2ccc(C3=CCCC3)cc2O[C@@H]1CN(C)C(=O)c1cnccn1,0.976
22,CC(=O)OCC1=C(C(=O)[O-])N2C(=O)[C@@H](NC(=O)Cc3cccs3)[C@H]2SC1.[Na+],0.954
23,O=C(C[C@@H]1CC[C@@H](NS(=O)(=O)c2ccc(F)cc2)[C@H](CO)O1)N1CCC(Cc2ccccc2)CC1,0.684
24,O=C(C[C@@H]1C=C[C@H](NC(=O)Nc2cc(F)ccc2F)[C@H](CO)O1)NCCCN1CCOCC1,1.02
25,O=C(C[C@H]1CC[C@@H]2[C@H](COC[C@H](O)CN2S(=O)(=O)c2ccccc2)O1)N1CCOCC1,1.06
26,COC(=O)c1cn(-c2cccc(N)c2)nn1,1.09
27,CN(C)CCCN1c2ccccc2CCc2ccccc21.Cl,0.905

row,Structure (SMILES),relative growth
1,COc1ccccc1S(=O)(=O)N[C@H]1CC[C@H](CCNC(=O)C2CC2)O[C@H]1CO,1.2
2,C=CCC[C@@H](Cc1ccc(F)cc1)C(=O)O[C@@H](CNC(=O)[C@H](CC=C)CC(=O)N(CCO)Cc1ccccc1)c1ccccc1,1.2
3,O=C(N/N=C/[C@H](O)[C@@H](O)[C@H](O)[C@H](O)CO[C@H]1O[C@H](CO)[C@H](O)[C@H](O)[C@H]1O)c1ccccn1,1.08
4,O=C(N[C@H]1C=C[C@H](CC(=O)N2CCOCC2)O[C@@H]1CO)c1ccccn1,1.01
5,O=C(NCc1ccncc1)C(=O)NC[C@H]1OCCN1C(=O)c1ccc(Cl)cc1,0.897
6,C[C@H]1CN([C@@H](C)CO)S(=O)(=O)c2ccc(C#CC3CCCC3)cc2O[C@H]1CN(C)Cc1cncnc1,0.768
7,CCOC(=O)[C@H]1CN(C(C)(C)C)C(=O)C1=O,0.959
8,CN(C)CC(=O)N[C@@H]1CC[C@@H](CCNC(=O)C2CC2)O[C@H]1CO,1.01
9,O=C(NO)c1cccc(C(=O)N/N=C/[C@H](O)[C@@H](O)[C@H](O)CO)c1,1.01
10,COc1ccc([Si](C)(C)[C@H]2[C@H](CC(=O)N(CCO)Cc3ccccc3)O[C@@]3(C(=O)N(Cc4ccc(N5CCC5=O)cc4)c4ccccc43)[C@@H]2C)cc1,1.24
11,O=C(N[C@@H]1CC[C@@H](CCNS(=O)(=O)c2ccc(F)cc2)O[C@H]1CO)C1CC1,1.11
12,S=C(NCCCc1cnc[nH]1)NCCCN(Cc1ccc(Cl)c(Cl)c1)c1ccc(Br)cn1,0.988
13,O=C(C[C@H]1CC[C@H]2[C@@H](COC[C@@H](O)CN2S(=O)(=O)c2cccc(Cl)c2)O1)N1CCOCC1,0.956
14,NC1(C(=O)O)CCC1,1.04
15,N=c1sccn1CC(=O)O,0.75
16,Cc1cccc(S(=O)(=O)N2C[C@@H](O)COC[C@@H]3O[C@@H](CC(=O)NCc4ccc5c(c4)OCO5)CC[C@H]32)c1,0.899
17,O=C(C[C@@H]1CC[C@@H](NS(=O)(=O)c2ccc(F)cc2)[C@@H](CO)O1)NCc1ccc(Cl)c(Cl)c1,0.949
18,COc1cccc(S(=O)(=O)N[C@H]2CC[C@@H](CCn3cc(-c4ccccc4OC)nn3)O[C@H]2CO)c1,0.969
19,COc1ccc(Cc2cnc(N)nc2N)cc1OC,0.445
20,NCCCC[C@@H]1NC(=O)[C@H]2C[C@@H](C(=O)NCc3ccc(F)cc3)[C@@H](c3cccc(OCCO)c3)N2C1=O,1.18
21,COC(=O)c1cc(S(=O)(=O)N2CCOCC2)cn1C,1.08
22,C[C@H](CO)N1C[C@H](C)[C@@H](CN(C)C(=O)c2ccccc2F)Oc2cc(C#CCN(C)C)ccc2S1(=O)=O,1.1
23,CC1(C)S[C@@H]2[C@H](NC(=O)[C@H](NC(=O)N3CCNC3=O)c3ccccc3)C(=O)N2C1C(=O)[O-].[Na+] (some centres undefined),0.715
24,COc1cccc(S(=O)(=O)Nc2ccc3c(c2)[C@H]2C[C@@H](CC(=O)NCc4ccccc4F)O[C@@H](CO)[C@H]2O3)c1,0.951
25,CC(=O)[C@H]1CCC2C3CCC4=CC(=O)CC[C@]4(C)C3CC[C@@]21C (some centres undefined),1.08
26,O=C(CN1CCOCC1)N[C@@H]1CC[C@@H](CCn2cc(C3CCCC3)nn2)O[C@@H]1CO,0.934
27,CN1C(C)(C)CCCC1(C)C.O=C(O)C(O)C(O)C(=O)O,1.02
